Test results as given in ChEMBL document CHEMBL4325836, “Novel tacrine-pyridinium hybrid reactivators of organophosphorus-inhibited acetylcholinesterase: Synthesis, molecular docking, and in vitro reactivation study” (2018).

Chains of the proteins cited; added tags and fusions are not shown. Residues count along the entry.
UniProt O42275, 24-633 limits assumed: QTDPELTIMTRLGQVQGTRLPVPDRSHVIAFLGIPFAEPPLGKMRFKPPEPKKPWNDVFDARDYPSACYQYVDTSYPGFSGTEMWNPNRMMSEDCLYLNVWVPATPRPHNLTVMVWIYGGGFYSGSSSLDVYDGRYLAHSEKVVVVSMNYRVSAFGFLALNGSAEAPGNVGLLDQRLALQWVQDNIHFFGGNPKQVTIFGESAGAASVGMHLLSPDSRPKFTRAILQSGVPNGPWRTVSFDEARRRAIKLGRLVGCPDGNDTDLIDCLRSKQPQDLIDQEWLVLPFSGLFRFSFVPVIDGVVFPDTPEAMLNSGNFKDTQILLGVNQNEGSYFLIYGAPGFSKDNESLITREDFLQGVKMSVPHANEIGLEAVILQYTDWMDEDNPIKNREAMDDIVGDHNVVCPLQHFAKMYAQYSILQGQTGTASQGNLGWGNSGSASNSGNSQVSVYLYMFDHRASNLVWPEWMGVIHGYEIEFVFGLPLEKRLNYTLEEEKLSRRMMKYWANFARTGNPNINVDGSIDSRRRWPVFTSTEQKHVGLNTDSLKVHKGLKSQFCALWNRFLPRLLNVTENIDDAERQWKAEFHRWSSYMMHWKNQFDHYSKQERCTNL

Experiments:
[1] = molecular target: T1, Acetylcholinesterase (Electrophorus electricus, UniProt O42275); test: Inhibition of electric eel AChE assessed as remaining enzyme activity at 100 to 1000 uM using acetylthiocholine iodide as substrate preincubated for 30 mins followed by substrate addition and measured every 3 mins for 15 mins; conditions: 0.25 h
[2] = molecular target: T1, Acetylcholinesterase; test: Inhibition of electric eel AChE assessed as remaining enzyme activity at 1 uM using acetylthiocholine iodide as substrate preincubated for 30 mins followed by substrate addition and measured every 3 mins for 15 mins relative to control; conditions: 0.25 h

| Compound | inhibition (INH) [1] | Activity [2] |
| --- | --- | --- |
| O/N=C/c1cc[n+](CCNc2c3c(nc4ccccc24)CCCC3)cc1.[Br-] | Active | 95% |
| Cl.NC(=O)c1cc[n+](COCN2C=CC=CC2=CN=O)cc1.[Cl-] | – | 95% |
| O/N=C/c1cc[n+](CCCCCCNc2c3c(nc4ccccc24)CCCC3)cc1.[Br-] | Active | – |
| O/N=C/c1cc[n+](CCCNc2c3c(nc4ccccc24)CCCC3)cc1.[Br-] | Active | 92% |
| O/N=C/c1cc[n+](CCCCCNc2c3c(nc4ccccc24)CCCC3)cc1.[Br-] | Active | – |
| O/N=C/c1cc[n+](CCCCCCCNc2c3c(nc4ccccc24)CCCC3)cc1.[Br-] | Active | – |
| O/N=C/c1cc[n+](CCCCNc2c3c(nc4ccccc24)CCCC3)cc1.[Br-] | Active | 90% |
| C[n+]1ccccc1/C=N/O.[Cl-] | – | 95% |
